Assay results from doi:10.1101/2025.11.20.689494.

Sequences of proteins named here, by UniProt entry; tags and fusion partners are left off.
UniProt Q7L523, whole entry, chain 1 of 2: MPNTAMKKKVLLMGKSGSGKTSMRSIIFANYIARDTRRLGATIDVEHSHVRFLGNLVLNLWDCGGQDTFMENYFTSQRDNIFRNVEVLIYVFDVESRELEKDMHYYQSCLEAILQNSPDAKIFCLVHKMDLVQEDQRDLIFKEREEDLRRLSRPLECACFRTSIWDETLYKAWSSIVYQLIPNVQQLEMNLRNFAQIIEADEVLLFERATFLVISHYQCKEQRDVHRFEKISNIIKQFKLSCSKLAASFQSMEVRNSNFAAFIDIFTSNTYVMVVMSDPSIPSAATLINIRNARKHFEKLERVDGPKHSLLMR
UniProt Q9HB90, whole entry, chain 2 of 2: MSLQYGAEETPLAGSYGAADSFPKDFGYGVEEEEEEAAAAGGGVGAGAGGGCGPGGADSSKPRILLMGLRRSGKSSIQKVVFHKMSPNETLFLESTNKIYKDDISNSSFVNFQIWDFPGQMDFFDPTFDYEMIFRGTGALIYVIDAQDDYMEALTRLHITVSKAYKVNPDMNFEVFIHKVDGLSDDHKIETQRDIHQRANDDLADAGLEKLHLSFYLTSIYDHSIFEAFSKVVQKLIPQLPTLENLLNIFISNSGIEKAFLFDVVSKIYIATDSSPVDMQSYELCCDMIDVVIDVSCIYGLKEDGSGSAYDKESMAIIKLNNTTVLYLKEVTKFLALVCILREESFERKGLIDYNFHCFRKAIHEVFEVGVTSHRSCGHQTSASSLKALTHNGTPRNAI

The substances below were run against RagA:RagC dimer (UniProt Q7L523) (assay: SPR; disulfide-bonded cyclic peptide designs tested on the RagA:RagC dimer; Kd and Rmax from sensorgrams; who was immobilised and the conditions are not told in what was shown (methods in Appendix E)).
“Peptide 14 (BoltzGen disulfide-bonded cyclic peptide design against RagA:RagC)” showed a Kd of 297 µM. In the case of “Peptide 12 (BoltzGen disulfide-bonded cyclic peptide design against RagA:RagC)”, the Kd is reported as 1100 µM. For “Peptide 18 (BoltzGen disulfide-bonded cyclic peptide design against RagA:RagC)”, the Kd was 80 µM. “Peptide 22 (BoltzGen disulfide-bonded cyclic peptide design against RagA:RagC)” showed a Kd of 274 µM. With “Peptide 16 (BoltzGen disulfide-bonded cyclic peptide design against RagA:RagC)” the Kd was 164 µM. Substance “Peptide 7 (BoltzGen disulfide-bonded cyclic peptide design against RagA:RagC)” has a Kd of 308 µM. For “Peptide 8 (BoltzGen disulfide-bonded cyclic peptide design against RagA:RagC)”, the Kd was 318 µM. With “Peptide 11 (BoltzGen disulfide-bonded cyclic peptide design against RagA:RagC)” the Kd was 447 µM.

These substances were tested against RagC GTPase (UniProt Q9HB90) (assay: SPR; linear peptide designs tested on RagC; Kd and Rmax from sensorgrams; who was immobilised and the conditions are not told in what was shown (methods in Appendix E)).
In the case of “Peptide 23 (BoltzGen linear peptide design against RagC)”, the Kd is reported as 268 µM. “Peptide 6 (BoltzGen linear peptide design against RagC)” gave a Kd of 60 µM. With “Peptide 20 (BoltzGen linear peptide design against RagC)” the Kd was 3.5 µM. “Peptide 29 (BoltzGen linear peptide design against RagC)” gave a Kd of 373 µM. Work on “Peptide 13 (BoltzGen linear peptide design against RagC)” yielded a Kd of 117 µM. Work on “Peptide 19 (BoltzGen linear peptide design against RagC)” yielded a Kd of 268 µM. Substance “Peptide 18 (BoltzGen linear peptide design against RagC)” has a Kd of 893 µM.
